pKi: −log10 of the molar value.

Chains of the proteins cited; added tags and fusions are not shown.
UniProt P35372, whole entry: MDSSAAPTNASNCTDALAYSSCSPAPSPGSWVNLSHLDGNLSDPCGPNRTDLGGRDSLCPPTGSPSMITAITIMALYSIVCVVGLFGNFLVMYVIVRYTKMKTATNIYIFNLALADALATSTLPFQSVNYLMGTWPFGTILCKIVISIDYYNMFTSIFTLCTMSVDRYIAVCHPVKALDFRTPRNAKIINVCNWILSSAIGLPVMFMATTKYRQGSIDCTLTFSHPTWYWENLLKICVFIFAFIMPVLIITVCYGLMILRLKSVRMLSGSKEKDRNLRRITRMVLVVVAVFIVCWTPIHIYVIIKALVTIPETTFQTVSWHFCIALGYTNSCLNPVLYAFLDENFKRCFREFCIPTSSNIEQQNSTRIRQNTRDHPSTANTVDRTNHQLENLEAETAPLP
UniProt P35462, whole entry: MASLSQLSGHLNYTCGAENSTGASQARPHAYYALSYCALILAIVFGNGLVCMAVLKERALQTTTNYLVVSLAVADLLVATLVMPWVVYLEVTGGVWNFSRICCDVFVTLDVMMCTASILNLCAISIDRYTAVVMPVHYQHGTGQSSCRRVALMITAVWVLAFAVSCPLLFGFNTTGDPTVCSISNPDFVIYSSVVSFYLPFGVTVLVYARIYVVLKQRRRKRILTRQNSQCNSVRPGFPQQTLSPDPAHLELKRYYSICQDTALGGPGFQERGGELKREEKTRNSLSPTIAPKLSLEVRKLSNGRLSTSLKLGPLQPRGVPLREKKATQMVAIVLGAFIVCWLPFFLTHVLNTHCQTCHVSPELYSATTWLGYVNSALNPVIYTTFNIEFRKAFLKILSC

The target of the first test is Mu-type opioid receptor (Homo sapiens, UniProt P35372). Type of test: cell membranes, HEK293, Membrane.
Conditions: not given
In general, pKi refers to the Ki on a negative log10 scale, so that one unit is a factor of ten. The low end stands for a large Ki, the high end for a small Ki. `CCc1cc(Cl)c(OC)c(C(=O)NC[C@@H]2CCCN2CCC(C#N)(c2ccccc2)c2ccccc2)c1O` gave a pKi of 4.95. Same read-out and setting: as for `CCOC(=O)/C=C1\[C@@H]2CCC[C@@]1(c1cccc(O)c1)CCN2CC1CC1CCNC(=O)c1cc2ccccc2[nH]1` (stereo partly specified), the figure is 7.71; as for `O=C(NCCCCN1CC[C@]2(c3cccc(O)c3)CCC[C@H]1[C@@H]2O)c1cc2ccccc2[nH]1`, 6.01; as for `O=C(NCCCCN1CC[C@]2(c3cccc(O)c3)CCC[C@H]1[C@H]2O)c1cc2ccccc2[nH]1`, 6.33.

Regarding `N#CC(CCN1CCN(c2cccc(Cl)c2Cl)CC1)(c1ccccc1)c1ccccc1`, the pKi was 6.58. As to `CN(C)C(=O)C(CCNCCC(O)CN1CCN(c2cccc(Cl)c2Cl)CC1)(c1ccccc1)c1ccccc1` (stereo unspecified), the pKi is 7.23.

Molecule `CN(C)CCC(C#N)(c1ccccc1)c1ccccc1` gave a pKi of 5.41.

`CCc1cccc(N2CCN(CCC(c3cccc(O)c3)c3cccc(OC)c3)CC2)c1Cl` (stereo unspecified) had a pKi of 6.62.

For `Oc1cccc([C@]23CCC[C@H](NCC2)[C@H]3O)c1`, the pKi was 6.76. For the molecule `CCc1cc(Cl)c(OC)c(C(=O)NC[C@@H]2C[C@@H](OCCCCNCCC(C(=O)N(C)C)(c3ccccc3)c3ccccc3)CN2)c1O`, the pKi is 6.25.

The molecule `N#CC(CCNCCC(O)CN1CCN(c2cccc(Cl)c2Cl)CC1)(c1ccccc1)c1ccccc1` (stereo unspecified) had a pKi of 7.20.

For `Oc1cccc([C@@]23CCC[C@@H]([C@H]2O)N(C/C=C/c2ccccc2)CC3)c1`, the pKi is 9.42. Against the preceding molecule, the pKi is 2.22 log units higher. The molecule `CN1CCC(c2ccccc2)(c2ccccc2)C1` gave a pKi of 5.07. On to `CCc1cccc(N2CCN(CCCCNCCC(C(=O)N(C)C)(c3ccccc3)c3ccccc3)CC2)c1Cl`, for which the pKi was 6.58. Against the preceding molecule, the pKi is 1.51 log units higher.

In the case of `CCc1cccc(N2CCN(CCC(c3cccc(OC)c3)c3cccc(OC)c3)CC2)c1Cl`, the negative logarithm of the Ki (pKi) is 5.41. Compared with the last molecule, the pKi is 1.17 log units lower. `Oc1cccc(C(CCNCCCCN2CCN(c3ccccc3)CC2)c2cccc(O)c2)c1` had a pKi of 6.67.

In the case of `CCc1cccc(N2CCN(CCC(C(=O)N(C)C)(c3ccccc3)c3ccccc3)CC2)c1Cl`, the pKi is 9.07. On the same count and under the same terms, as for `CCC(=O)N1CCC(c2ccccc2)(c2ccccc2)C1`, the figure is 4.82; as for `CCc1cccc(N2CCN(CC(O)CCNCCC(C(=O)N(C)C)(c3ccccc3)c3ccccc3)CC2)c1Cl` (stereo unspecified), 6.48; as for `CCOC(=O)/C=C1\[C@@H]2CCC[C@@]1(c1cccc(O)c1)CCN2C[C@@H]1C[C@H]1CCNC(=O)c1cc2ccccc2[nH]1` (relative stereo), 7.25.

In turn, `CCOC(=O)/C=C1\[C@@H]2CCC[C@@]1(c1cccc(O)c1)CCN2C[C@H]1C[C@@H]1CCNC(=O)c1cc2ccccc2[nH]1` (relative stereo) showed a pKi of 7.87.

The molecule `N#CC(CCNCCc1ccccc1)(c1ccccc1)c1ccccc1` gave a pKi of 5.93. Still for that read-out and setting: as for `N#CC(CCNCCCCC(=O)N1CCN(c2cccc(Cl)c2Cl)CC1)(c1ccccc1)c1ccccc1`, the figure is 7.22; as for `CN(C)C(=O)C(CCNCCCCN1CCc2ccc(C#N)cc2C1)(c1ccccc1)c1ccccc1`, 6.82. In the case of `CCc1cccc(N2CCN(CCC(c3cccc(O)c3)c3cccc(O)c3)CC2)c1Cl`, the pKi was 6.49. The same measure, in the same setting: under `Oc1cccc([C@]23CCC[C@H](NCC2)[C@@H]3O)c1` stands 5.49; under `CN(C)C(=O)C(CCNCCc1ccccc1)(c1ccccc1)c1ccccc1`, 7.30.

Take `CCOC(=O)/C=C1\[C@@H]2CCC[C@@]1(c1cccc(O)c1)CCN2`: the pKi was 6.32. On to `CN(C)CCC(C(=O)N(C)C)(c1ccccc1)c1ccccc1`, for which the negative logarithm of the Ki (pKi) is 6.19. For the molecule `COc1cccc(C(=CCNCCCCN2CCN(c3cccc(Cl)c3Cl)CC2)c2cccc(OC)c2)c1`, the pKi is 5.00. `CCOC(=O)/C=C1\[C@@H]2CCC[C@@]1(c1cccc(O)c1)CCN2CCN1CCN(c2cccc(Cl)c2Cl)CC1` gave a pKi of 7.03. Against the preceding molecule, the pKi is 2.03 log units higher. On to `CN(C)C(=O)C(CCN1CCc2ccc(C#N)cc2C1)(c1ccccc1)c1ccccc1`, for which the pKi is 7.74.

In turn, `CN(C)CCC(C(=O)NCCCCN1CCN(c2cccc(Cl)c2Cl)CC1)(c1ccccc1)c1ccccc1` showed a pKi of 5.83. Take `CCc1cc(Cl)c(OC)c(C(=O)NCC2CCCN2CC(=O)N2CCC(c3ccccc3)(c3ccccc3)C2)c1O` (stereo unspecified): the pKi was 4.85.

Staying with this test, now noted: hek293.
`CCOC(=O)/C=C1\[C@@H]2CCC[C@@]1(c1cccc(O)c1)CCN2CCCCNC(=O)c1cc2ccccc2[nH]1` showed a pKi of 7.24.

Another test has as its target D(3) dopamine receptor (Homo sapiens, UniProt P35462). Description: Displacement of [3H]-N-methylspiperone from human dopamine D3 receptor expressed in HEK293 cell membranes incubated for 60 mins by microbeta scintillation counting analysis. More on the design: species or system Membrane.
Conditions: not given
On the technique in general: Displacement assays read how much labelled ligand stays bound in the presence of the test substance.
In turn, `CCc1cccc(N2CCN(CCC(c3cccc(O)c3)c3cccc(OC)c3)CC2)c1Cl` (stereo unspecified) showed a pKi of 6.63.

(Values after ChEMBL document CHEMBL5046218, “Novel Dual-Target μ-Opioid Receptor and Dopamine D3 Receptor Ligands as Potential Nonaddictive Pharmacotherapeutics for Pain Management” (J Med Chem, 2021).)
